Experiment [1] concerns the target α2B adrenoceptor (Homo sapiens, UniProt P18089). Kind of experiment: Agonist screening mode IP-One assay, CHO-α2B/Gα15 cells. The experiment is classed as cell-based. The following applies: read-out: Function α2B.
Experiment [2] concerns the target α1A receptor (Homo sapiens, UniProt P35348). The experiment in a line: Competitive receptor binding assay, α1A (3H-Prazosin, CHO-K1-α1A membranes). To be noted: read-out: Binding α1A.
For experiment [3], the target named is α2C adrenoceptor (Homo sapiens, UniProt P18825). Kind of experiment: Agonist screening mode IP-One assay, CHO-α2C/Gα15 cells. Format: cell-based. The following applies: read-out: Function α2C.
For experiment [4], the system named is Male SD rats. Kind of experiment: Hypnotic efficacy: loss of righting reflex (LORR) in rats.
Experiment [5] addresses α2C receptor (Homo sapiens, UniProt P18825). Kind of experiment: Competitive receptor binding assay, α2C (3H-RX821002, CHO-K1-α2C membranes). The following applies: read-out: Binding α2C.
Experiment [6] deals with α2A adrenoceptor (Homo sapiens, UniProt P08913). Kind of experiment: Agonist screening mode cAMP assay, 293-α2A cells. Format: cell-based. A general note: Changes in cAMP serve as a functional read-out for many G protein-coupled receptors.
Experiment [7] deals with α2A receptor (Homo sapiens, UniProt P08913). Kind of experiment: Competitive receptor binding assay, α2A (3H-RX821002, CHO-K1-α2A membranes).
The target of experiment [8] is α2B receptor (Homo sapiens, UniProt P18089). Kind of experiment: Competitive receptor binding assay, α2B (3H-RX821002, CHO-K1-α2B membranes). The following applies: read-out: Binding α2B.
For experiment [9], the target named is α1A adrenoceptor (Homo sapiens, UniProt P35348). The experiment in a line: Agonist screening mode IP-One assay, 293-α1A cells. Format: cell-based. To be noted: read-out: Function α1A.
The mark [10] stands for this setting: in words, compared with dexmedetomidine hydrochloride, rats.
The mark [11] stands for this setting: loss of righting reflex, male SD rats, tail vein injection, dose twice the ED50, 10 rats per group.

Amino acid sequences for entries named in this document (tags omitted).
UniProt P18089, whole entry: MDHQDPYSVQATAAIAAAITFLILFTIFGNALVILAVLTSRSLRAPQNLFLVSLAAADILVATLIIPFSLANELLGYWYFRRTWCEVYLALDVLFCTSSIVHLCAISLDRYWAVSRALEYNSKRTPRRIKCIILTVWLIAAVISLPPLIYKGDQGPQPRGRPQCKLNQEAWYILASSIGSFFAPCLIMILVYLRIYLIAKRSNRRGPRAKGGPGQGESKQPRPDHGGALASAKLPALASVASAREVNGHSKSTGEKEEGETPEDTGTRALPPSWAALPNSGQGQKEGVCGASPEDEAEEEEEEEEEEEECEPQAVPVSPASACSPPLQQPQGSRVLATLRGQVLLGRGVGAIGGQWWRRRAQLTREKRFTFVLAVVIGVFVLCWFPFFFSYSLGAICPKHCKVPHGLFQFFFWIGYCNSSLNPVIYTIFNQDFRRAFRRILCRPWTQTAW
UniProt P35348, whole entry: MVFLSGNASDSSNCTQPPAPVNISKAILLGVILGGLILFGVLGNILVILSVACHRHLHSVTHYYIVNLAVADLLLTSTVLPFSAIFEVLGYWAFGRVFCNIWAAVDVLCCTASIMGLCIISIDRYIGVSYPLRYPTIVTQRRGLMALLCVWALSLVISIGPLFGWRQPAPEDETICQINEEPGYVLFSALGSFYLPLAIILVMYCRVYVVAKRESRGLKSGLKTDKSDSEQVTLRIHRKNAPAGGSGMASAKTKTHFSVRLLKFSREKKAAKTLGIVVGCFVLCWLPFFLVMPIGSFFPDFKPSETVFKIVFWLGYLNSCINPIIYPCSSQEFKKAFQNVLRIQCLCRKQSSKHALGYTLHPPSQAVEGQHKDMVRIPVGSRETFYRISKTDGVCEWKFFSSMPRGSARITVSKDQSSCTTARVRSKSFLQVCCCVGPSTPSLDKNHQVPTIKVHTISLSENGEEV
UniProt P18825, whole entry: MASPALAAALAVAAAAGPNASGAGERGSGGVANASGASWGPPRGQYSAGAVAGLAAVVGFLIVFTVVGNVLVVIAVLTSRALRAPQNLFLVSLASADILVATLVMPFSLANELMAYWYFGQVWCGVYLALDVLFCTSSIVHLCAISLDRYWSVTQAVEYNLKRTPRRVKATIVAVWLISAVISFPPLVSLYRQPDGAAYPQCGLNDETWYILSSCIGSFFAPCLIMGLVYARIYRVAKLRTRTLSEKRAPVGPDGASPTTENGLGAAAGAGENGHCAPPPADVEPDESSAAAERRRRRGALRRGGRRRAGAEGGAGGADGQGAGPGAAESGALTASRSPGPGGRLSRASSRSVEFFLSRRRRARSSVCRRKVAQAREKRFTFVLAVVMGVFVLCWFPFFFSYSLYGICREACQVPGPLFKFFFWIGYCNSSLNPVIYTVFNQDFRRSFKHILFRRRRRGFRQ
UniProt P08913, whole entry: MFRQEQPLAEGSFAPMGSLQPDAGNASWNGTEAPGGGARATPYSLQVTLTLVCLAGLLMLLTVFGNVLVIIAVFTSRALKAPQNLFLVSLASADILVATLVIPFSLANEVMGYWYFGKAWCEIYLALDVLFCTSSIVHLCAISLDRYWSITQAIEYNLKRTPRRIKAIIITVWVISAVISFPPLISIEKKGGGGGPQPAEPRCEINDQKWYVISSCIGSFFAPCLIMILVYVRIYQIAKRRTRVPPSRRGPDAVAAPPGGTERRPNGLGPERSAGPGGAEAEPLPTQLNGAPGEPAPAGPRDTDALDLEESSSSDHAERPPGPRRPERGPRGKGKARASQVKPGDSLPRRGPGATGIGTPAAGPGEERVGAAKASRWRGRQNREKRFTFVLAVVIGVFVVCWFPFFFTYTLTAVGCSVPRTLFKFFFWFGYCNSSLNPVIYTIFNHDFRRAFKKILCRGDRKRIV

pEC50, pKi: −log10 of the molar value. A value given as a limit tells only on which side of the number the result lay.

On to `C[C@H](c1c[nH]cn1)c1cc(F)cc2c1CCC2`, for which the pEC50 in experiment [1] is 8.32; in experiment [3], 8.30; in experiment [6] (read-out: Function α2A, EC50, cAMP-Gi, 293-α2A cells, Forskolin 1 µM), 7.03; in experiment [9], 7.32. The pKi was 6.09 in [2]; 7.49 in [5]; 6.61 in experiment [7] (read-out: Binding α2A, Ki, CHO-K1-α2A membranes, 3H-RX821002); 7.41 in experiment [8]. For the same compound, the duration result in experiment [4] (setting [10]) is recorded as “significantly shorter”; in [4] (setting [11]), 1751.50±672.18 S. Also, in experiment [4] (setting [10]), the hypnotic onset time entry is “comparable to or slightly longer”. The compound also returned an ED50 in experiment [4] (loss of righting reflex, male SD rats, tail vein injection over 10 s, sequential method) of 70.2 µg/kg. In [4] (setting [11]), this compound registered an Onset time of 71.20±17.71 S. Besides, the “induce sleep in rats” value in [4] (time to induce sleep, rats, dose twice the ED50) is on record as not above 5 min. Also, in [6] (ratio of α1A to α2A EC50), the “Function α1A/2A” value is given as 0.5 nM. The “Binding α1A/2A” value in [7] (ratio of α1A to α2A binding values) stood at 3.3 nM.

The term ED50 denotes the dose that gives a 50% effect, or the effect in half of the subjects. Read a high ED50 as a need for a large dose.
